According to patent US5194611A, “Separation technique for a mixture of (6RS)-diastereoisomers of an ammonium salt of N^5 -methyl-5,6,7,8-tetrahydrofolic acid into single (6R) and (6S)-diastereoisomers” (Sapec S.A. fine chemicals, priority 1990, dated 1993):
Structures can show the parent of a compound that is named as a salt.

Assay: in vivo
Conditions: mouse, iv

`CN1c2c(nc(N)[nH]c2=O)NC[C@H]1CNc1ccc(C(=O)N[C@@H](CCC(=O)O)C(=O)O)cc1` [(6R)-N^5 -Methyl-THF.Ca^2+, (6R)-N^5 -methyl-THF-calcium salt] and `CN1c2c(nc(N)[nH]c2=O)NCC1CNc1ccc(C(=O)N[C@@H](CCC(=O)O)C(=O)O)cc1` (stereo partly drawn) [(6RS)-N^5 -Methyl-THF.Ca^2+, (6RS)-N^5 -methyl-THF-calcium salt, reference compound] are within 1.5-fold of each other in LD50: 460 mg/kg for the first, 339 mg/kg for the second.

Molecule `CN1c2c(nc(N)[nH]c2=O)NC[C@@H]1CNc1ccc(C(=O)N[C@@H](CCC(=O)O)C(=O)O)cc1` [(6S)-N^5 -Methyl-THF.Ca^2+, (6S)-N^5 -methyl-THF-calcium salt] has an LD50 of 847 mg/kg.
